Assay results published in PMC8712300 (European Journal of Nuclear Medicine and Molecular Imaging, 2021).

Conditions: n-octanol/PBS pH 7.4, individual replicates

CCCN(CCC)C(=O)Cc1c(-c2ccc([18F])cc2)nc2c(Cl)cc(Cl)cn12 [[^18F]BS224, 2-(-2-(4-[^18F]fluorophenyl)-6,8-dichloro-imidazo[1,2-a]pyridin-3-yl)-N,N-dipropylacetamide]
Log D (single measurements 1-5): 2.824 and 2.816

Several values for one entry are separate records, joined by “and”; a condition that tells them apart may be missing. Equal entries are not always repeated.
